# Antibody variant affinities, Ab-14 light chain, assay 1

Target peptide (SARS-CoV-2 spike, HR2 region): PDVDLGDISGINAS

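The library (AAYL50) carries one to three amino acid substitutions per variant, with no insertions or deletions. The assay is AlphaSeq: two haploid yeast populations carry antibody and antigen on their surface. Binding brings cells together so that they mate, and sequencing counts the barcode pairs among the diploids. A regression on co-assayed BCL2-family reference pairs converts the normalised counts of each replicate to an apparent Kd. Mating was done three times.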

Parent scFv Ab-14: VH joined to VL by a (GGGGS)3 linker. Changes lie in the light chain CDRs alone.
VH: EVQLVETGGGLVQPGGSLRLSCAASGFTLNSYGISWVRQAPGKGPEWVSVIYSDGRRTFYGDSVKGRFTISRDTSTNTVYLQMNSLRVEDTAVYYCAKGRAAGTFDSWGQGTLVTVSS
VL: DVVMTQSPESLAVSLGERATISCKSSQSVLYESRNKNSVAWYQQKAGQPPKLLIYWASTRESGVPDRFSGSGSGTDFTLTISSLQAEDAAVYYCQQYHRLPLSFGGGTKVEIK

The parent's light chain CDRs are KSSQSVLYESRNKNSVA, WASTRES, QQYHRLPLS; each variant's own CDRs replace them letter for letter.
Each Kd is an estimate from the mating assay, the geometric mean of the replicates in which the pair was seen; lower is stronger.
"not detected" means that the variant was in the library but no mating with the target was seen in any replicate; the authors take this as a sign of poor binding, and no number exists.
Entries are sorted by rising average, undetected variants last.
Parent in this assay: reference entry 4.4 nM, copy in this library 48 nM.
Three control strains display no target. For library AAYL50, 18% of the pairings with them gave a signal, with a median of 15 µM and one signal in twenty below 970 nM, so weak values seen in few replicates may be background.

| CDR-L1 | CDR-L2 | CDR-L3 | apparent Kd | detected |
|---|---|---|---|---|
| KSSTSVLYESRNKNSVA | WASTRES | QQYLRLPLS | 720 pM | 3 of 3 |
| KSSQSVMYDSRNKNSVA | QASTRES | QQYHRLPLS | 830 pM | 3 of 3 |
| KSSQSVLDESRNKNSVA | GASTRES | QQHHRLPLS | 2.0 nM | 3 of 3 |
| KSSQSVLYDSRNYNSVA | WASTRES | QQCHRLPLS | 2.5 nM | 3 of 3 |
| KSSQSVLEESRVKNSVA | WASTRES | QQYHRFPLS | 4.5 nM | 3 of 3 |
| KFSSSVLYESRNKNSVA | WASTPES | QQYHRLPLS | 5.6 nM | 3 of 3 |
| KWSQSVLYESRNKNSVA | WASTRES | QQYTRLPLS | 8.2 nM | 3 of 3 |
| KSSSSVLYESRNKNSVA | WDSTRES | QQYHRLPLC | 9.8 nM | 3 of 3 |
| VSSQSVLYENKNKNSVA | WASTRES | QQYHRLPLS | 11 nM | 3 of 3 |
| KSSQSVLYESRNKNSVA | WAHTREI | QQYYRLPLS | 12 nM | 3 of 3 |
| KSSQSVLYESVNCNSVA | WASTRES | QQYSRLPLS | 13 nM | 3 of 3 |
| KSSQPVLSESRNKNSVA | WASTRMS | QQYHRLPLS | 20 nM | 3 of 3 |
| KSSQSVLEESRNKNSVA | FASTRES | QQYHRLPLY | 25 nM | 3 of 3 |
| KQSQSVLYESRNKRSVA | WASTRES | QQYHRLPLF | 27 nM | 3 of 3 |
| NSSQSVHYESRNKRSVA | WASTRES | QQYHRLPLS | 49 nM | 3 of 3 |
| KSSQLVLYESRNKSSVA | WASTRES | QQYHRLPLS | 64 nM | 3 of 3 |
| KSSQSVLYAHRNKNSVA | WASTRES | PQYHRLPLS | 70 nM | 3 of 3 |
| KSSQSVLYESRNKNSVA | WASGRMS | QQYHILPLS | 210 nM | 1 of 3 |
| KSSQTVLYESVNKNMVA | WASTRES | QQYHRLPLS | 250 nM | 3 of 3 |
| KSSQSVLYESRNMNSVA | WAATREL | QQYHRLPLS | 270 nM | 3 of 3 |
| KSSQTVLYESRNKCSVA | WASTRYS | QQYHRLPLS | 270 nM | 3 of 3 |
| NSSQSVLYESRNKNSVA | WASSRLS | QQYHRLPLS | 440 nM | 2 of 3 |
| KSSQSVLYESRNKNSVA | WASTREE | QQYPRDPLS | 510 nM | 1 of 3 |
| KSSQSVLYESRRKQSVA | WASTRES | QQYHRLPLS | 750 nM | 2 of 3 |
| KSSQSGLYESRNKNSVA | WASTRHS | QSYHRLPLS | 1.3 µM | 3 of 3 |
| KSSQQVLYESRWKNSVA | WASTRES | QQYHRLPLW | 1.6 µM | 2 of 3 |
| SSSQWVLYESRNKNSVA | WASTREH | QQYHRLPLS | 2.1 µM | 2 of 3 |
| GSSQSCLYESRYKNSVA | WASTRES | QQYHRLPLS | 2.2 µM | 1 of 3 |
| KSSQSVLSESRNKNQVA | WASRRES | QQYHRLPLS | 3.4 µM | 2 of 3 |
| KSSQSVLYESRNKNSVA | WASTRES | QRYHRIRLS | 6.4 µM | 1 of 3 |
| KSSQSVLYESRNKNWVA | FASTRES | QQYHRLPLS | 9.0 µM | 2 of 3 |
| KSSQSVLYESRNKNSVK | WASTRES | RQYHRCPLS | 9.6 µM | 2 of 3 |
| KSSQSVLYESRNKNSVA | WAFTRES | QLYHRLPLS | 11 µM | 1 of 3 |
| KSSDSVLYESINKNSVA | WASTRES | QQYHRLRLS | 11 µM | 1 of 3 |
| KSSQSVLYESINKNSVH | CASTRES | QQYHRLPLS | 12 µM | 2 of 3 |
| KSSQKVLYESRNKNVVA | WASTRES | QQYHRLPTS | 25 µM | 2 of 3 |
| KSSQSCLYEFRNKNSVA | WASTRES | QYYHRLPLS | 37 µM | 3 of 3 |
| KSSQSVLYESHNKNSVA | WASTRES | QRYHRLPLS | 39 µM | 2 of 3 |
| KTSQSVLYESRNKGSVA | WFSTRES | QQYHRLPLS | 42 µM | 2 of 3 |
| KSSQSTLYESRNKNSHA | WLSTRES | QQYHRLPLS | 67 µM | 1 of 3 |
| KSSQSVLYEPRNKRSVA | WALTRES | QQYHRLPLS | 84 µM | 1 of 3 |
| KSSQKVLYESRFKNSVA | WASTRES | QQYHRSPLS | 280 µM | 2 of 3 |
| KSSQSVLYESRNKNSVA | WASTPEW | QQYHRLILS | 1.1 mM | 1 of 3 |
| KSSQSVLYESRNKNSVP | WASYRES | QQYHRLPLS | not detected | 0 of 3 |
| KGSQSVLYESRLKNSVA | WASTRES | QQYHRLPTS | not detected | 0 of 3 |
| KSSQSVLYESRNKNIVA | WASYRES | QQCHRLPLS | not detected | 0 of 3 |
| KSSASVLYESRNKNSVA | WASQRES | QQYHRLGLS | not detected | 0 of 3 |
| KSSQSVLYESRNKNSVN | WASTREI | DQYHRLPLS | not detected | 0 of 3 |
| KSSQSVLDESRNKNSVA | WASTHES | QSYHRLPLS | not detected | 0 of 3 |
| KSSQSDLYESRNKNSVA | WASTRES | KQYKRLPLS | not detected | 0 of 3 |
| KSSQSVLYESRNVNSVW | WASTRES | QQYHRLPLD | not detected | 0 of 3 |
| KSSQSAKYESRNKNVVA | WASTRES | QQYHRLPLS | not detected | 0 of 3 |
| KSSQSVLYESRNKNFVQ | WASTRES | QIYHRLPLS | not detected | 0 of 3 |
| KSSCSVLYESRNKNSSA | WASTRES | QQYHRLPLS | not detected | 0 of 3 |
| KSSQSVLYESRNKNSVA | WAATRES | QQYHRLPGE | not detected | 0 of 3 |
| KSSQSVLYESRNKNPVA | HAPTRES | QQYHRLPLS | not detected | 0 of 3 |
| KPSQSDLYESRNKNSVD | WASTRES | QQYHRLPLS | not detected | 0 of 3 |
| KSSQSVLYESRNKNSVA | WAGTRES | QHYHRLELS | not detected | 0 of 3 |
| KSSQSVLYESRNKNSVA | WMSTREI | QQNHRLPLS | not detected | 0 of 3 |
| KYSQSVLYESRNKNSVA | WASTRES | QQNHELPLS | not detected | 0 of 3 |
| KSSQSVCYESRNKNSTA | WASTRAS | QQYHRLPLS | not detected | 0 of 3 |
| KSSQSVLYESRNKNQVA | WISTRES | QQYHRLPLS | not detected | 0 of 3 |
| KSSQSVLYESRNKNSRM | WASTRES | QQYQRLPLS | not detected | 0 of 3 |
| KSSQSVLYESRNKNMVA | WAQTRES | QQYHRLMLS | not detected | 0 of 3 |
| KSSQSVLYESRNKNSVA | WASTRES | QQYHALWQS | not detected | 0 of 3 |

The first 7 entries again:

| CDR-L1 | CDR-L2 | CDR-L3 | apparent Kd | detected |
|---|---|---|---|---|
| KSSTSVLYESRNKNSVA | WASTRES | QQYLRLPLS | 720 pM | 3 of 3 |
| KSSQSVMYDSRNKNSVA | QASTRES | QQYHRLPLS | 830 pM | 3 of 3 |
| KSSQSVLDESRNKNSVA | GASTRES | QQHHRLPLS | 2.0 nM | 3 of 3 |
| KSSQSVLYDSRNYNSVA | WASTRES | QQCHRLPLS | 2.5 nM | 3 of 3 |
| KSSQSVLEESRVKNSVA | WASTRES | QQYHRFPLS | 4.5 nM | 3 of 3 |
| KFSSSVLYESRNKNSVA | WASTPES | QQYHRLPLS | 5.6 nM | 3 of 3 |
| KWSQSVLYESRNKNSVA | WASTRES | QQYTRLPLS | 8.2 nM | 3 of 3 |

Reference: Engelhart et al. 2022, doi:10.1038/s41597-022-01779-4. File: FLAb, binding data.